Assay results published in US20140127159A1, “HCV Combination Therapy” (Stella ApS, priority 2011, published 2014).
Several values for one entry are separate records, joined by “and”; a condition that tells them apart may be missing. Equal values may be shown once.

How the values were obtained:
[1] = system: Huh-luc/neo-ET
[2] = system: HCV genotype Ib replicon in Huh-luc/neoET cells; assay type: cell-based

## Interferon alpha-2b: Interferon-a2b purchased from R&D Systems
[1]
  Cytotoxicity, Synergy vol: 0/0; 0/−8.9 μM^2%
[2]
  Efficacy, Synergy vol: 10.75/−38.2; 10.33/0 μM^2%
[2]; in combination with miravirsen (SPC3649), 95% confidence interval, median (≧3 experiments) or individual values
  Efficacy, Antagonism vol: −38.2 μM^2% and 0 μM^2%
